Tested on: K562 cells

Substance | binding to parental K562 cells (in words)
biotin-CAVPNLRGDLQVLAQKVACTK-amide [C1C19 DFBP] | significantly bound to parental K562 cells at high concentrations
biotin-NCVPNLRGDLQVLAQKVACTK-amide [C2C19 DFBP] | significantly bound to parental K562 cells at high concentrations
